The values that follow come from US9234005B2 (priority 2011, dated 2016).

Protein sequences, listed by entry. Tags and fused reporters are not part of them. Residues count along the entry.
UniProt P29074, 499-604 S499G limits assumed: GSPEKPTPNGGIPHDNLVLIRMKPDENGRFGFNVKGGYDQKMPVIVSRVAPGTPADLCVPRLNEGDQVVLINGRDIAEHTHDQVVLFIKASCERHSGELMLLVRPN

For one assay, the system named is U373MG astrocytoma cells. Type of assay: cell-based, human.
In a further assay the target is PTPN4-PDZ (Homo sapiens, UniProt P29074, S499G). Kind of assay: NMR titration of peptide affinity for PTPN4-PDZ. In kind it is binding. The following applies: for pKd: read-out: Kd for PTPN4-PDZ (dissociation constant, text), NMR titration.

In general, pKd refers to the Kd on a negative log10 scale, so that one unit is a factor of ten.

Structures are written as SMILES. pKd: −log10 of the molar value.

Take `CC(C)[C@H](NC(=O)[C@H](CC(=O)O)NC(=O)[C@H](CO)NC(=O)[C@H](CCC(=O)O)NC(=O)CNC(=O)CNC(=O)[C@H](CO)NC(=O)[C@H](CCCCN)NC(=O)[C@H](Cc1c[nH]cn1)NC(=O)[C@H](CO)NC(=O)[C@H](CCC(=O)O)NC(=O)[C@H](Cc1c[nH]c2ccccc12)NC(=O)[C@@H](N)CO)C(=O)O`: the “capacity to trigger death compared to parent peptide GluN2A-16” value in the assay with U373MG astrocytoma cells (3 h peptide treatment) is listed as “decreased by half”. On PTPN4-PDZ, the “factor by which affinity for PTPN4-PDZ dropped compared to the native GluN2A peptide” value is 2 and the pKd was 4.07.
Consider `CC(C)[C@H](NC(=O)[C@H](CCC(=O)O)NC(=O)[C@@H](NC(=O)[C@H](CCC(=O)O)NC(=O)[C@H](CCCNC(=N)N)NC(=O)CNC(=O)[C@H](CO)NC(=O)[C@H](CCCCN)NC(=O)[C@H](Cc1c[nH]cn1)NC(=O)[C@H](CO)NC(=O)[C@H](CCC(=O)O)NC(=O)[C@H](Cc1c[nH]c2ccccc12)NC(=O)[C@@H](N)CO)[C@@H](C)O)C(=O)O`, for which the “cell death (% of dead cells among peptide loaded cells)” value in the assay on U373MG astrocytoma cells (25 microM Tat-conjugated FITC peptide, 3 h, PI) was 66%. Also, at PTPN4-PDZ, the “fold increase in affinity for PTPN4-PDZ compared to Cyto13-att (Cyto-att)” value is reported as 160 fold, the “fold increase in affinity for PTPN4-PDZ compared to GluN2A-16” value worked out at 40 fold and the pKd was 6.00.
